According to patent US11400269B2, “Using alternating electric fields to increase permeability of the blood brain barrier” (Novocure GmbH, priority 2018, dated 2022):

Test system: artificial BBB (cerebEND, immortalized murine brain capillary endothelial cells)
Settings: 100 kHz alternating electric fields for 72 hours; 4 kDa molecular weight; vs control without fields

fluoresceine isothiocyanate coupled to dextran [FITC-dextrans]
permeability of the artificial BBB to FITC-dextrans: 110 % of the control
